{
  "sequences": {"note": "The chains behind the UniProt entries cited, without tags or fusion partners.", "UniProt P23977, whole entry": "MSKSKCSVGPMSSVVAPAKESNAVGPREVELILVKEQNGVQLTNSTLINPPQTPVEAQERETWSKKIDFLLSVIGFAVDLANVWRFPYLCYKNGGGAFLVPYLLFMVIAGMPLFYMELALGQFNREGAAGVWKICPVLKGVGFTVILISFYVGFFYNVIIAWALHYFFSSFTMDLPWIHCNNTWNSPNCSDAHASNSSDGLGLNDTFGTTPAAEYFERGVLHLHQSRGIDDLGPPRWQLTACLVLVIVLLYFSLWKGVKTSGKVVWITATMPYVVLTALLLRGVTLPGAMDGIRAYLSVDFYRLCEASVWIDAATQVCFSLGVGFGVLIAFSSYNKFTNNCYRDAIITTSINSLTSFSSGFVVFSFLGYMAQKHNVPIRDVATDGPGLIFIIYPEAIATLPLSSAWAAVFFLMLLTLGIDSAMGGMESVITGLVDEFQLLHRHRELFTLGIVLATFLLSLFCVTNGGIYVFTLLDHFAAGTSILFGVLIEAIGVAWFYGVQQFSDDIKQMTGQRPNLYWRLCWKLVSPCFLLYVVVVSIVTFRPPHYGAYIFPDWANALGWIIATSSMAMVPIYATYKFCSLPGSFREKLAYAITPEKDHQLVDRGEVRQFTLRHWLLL"},
  "source": "patent US6537522B1",
  "about": "“Neuroprobes for mapping monoamine reuptake sites” (Amersham PLC, priority 1992, dated 2003)",
  "biological_target": "T1, DAT (dopamine transporter) (Rattus norvegicus, UniProt P23977)",
  "T1 construct": "a crude membrane fraction of homogenates of rat brain corpus striatum (for DAT assays); from tissue; host or cells: rat brain corpus striatum, crude membrane fraction",
  "experiment": "DAT assay, [3H]GBR-12935 binding, rat brain corpus striatum membranes",
  "settings": "radioligand, 13 Ci/mmol",
  "description": "N-phthalimidopropyl-β-CIT (see Example 10) was analyzed as follows. Stock solutions (1 mM) of test agents were made in 95% ethanol/DMSO (1/1, v/v) and stored at −5° C. until used by diluting in a large excess of each assay buffer. Agents are tested at six concentrations in duplicate, with a crude membrane fraction of homogenates of rat brain corpus striatum (for DAT assays) in Tris-citrate buffer (pH 7.4) containing Na^+ ([…]) and Mg^2+ (4 mM) or frontoparietal cerebral cortex (for 5-HTT and NET) in 50 mM Tris-HCl buffer (pH 7.4) containing Na^+ ([…]) and K^+ (5 mM) following methods reported by Neumeyer et al., J. Med. Chem. 37, 1558-1561 (1991), the whole of which is incorporated by reference herein.",
  "data": [
    {"smiles": "c1ccc(CCCN2CCN(CCOC(c3ccccc3)c3ccccc3)CC2)cc1", "note": "[[^3H]GBR-12935, reference compound]", "values": [
      {"measurement": "Kd", "value": 1, "unit": "nM"}
    ]}
  ]
}
